Experimental data taken from patent US11312688B2, “Pyrazole compound” (Sumitomo Dainippon Pharma Co., Ltd., priority 2011, dated 2022).

Protein sequences, listed by entry. Tags and fused reporters are not part of them. Lines headed by an entry give the natural chain unless they say otherwise; changes in a name come on top.
UniProt P28335: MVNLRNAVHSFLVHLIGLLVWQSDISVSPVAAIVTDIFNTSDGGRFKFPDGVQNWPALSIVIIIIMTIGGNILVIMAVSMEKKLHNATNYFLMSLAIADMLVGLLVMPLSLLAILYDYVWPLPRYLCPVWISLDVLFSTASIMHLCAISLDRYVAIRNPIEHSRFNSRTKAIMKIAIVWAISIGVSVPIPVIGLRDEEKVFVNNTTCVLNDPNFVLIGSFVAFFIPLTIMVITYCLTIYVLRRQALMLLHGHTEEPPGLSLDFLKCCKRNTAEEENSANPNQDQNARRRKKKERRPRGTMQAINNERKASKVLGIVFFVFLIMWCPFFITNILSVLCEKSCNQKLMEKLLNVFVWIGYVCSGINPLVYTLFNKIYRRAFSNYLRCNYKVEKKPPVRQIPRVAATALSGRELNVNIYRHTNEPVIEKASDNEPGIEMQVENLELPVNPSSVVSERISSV

Molecular target: human serotonin 2C receptor (h-5-HT2C) (Homo sapiens (Human), UniProt P28335)
Test: 5-HT2C receptor agonistic action assay (FLIPR Calcium 4, h-5-HT2C/CHO cells; agonistic / inverse agonistic action)
Format: cell-based
Conditions: Test Ex. 3; test material 10 μmol/L; 100% = 10 μmol/L 5-HT, −100% = 10 μmol/L SB206553; below 0% = inverse agonistic action
Procedure: 3-1. The Cells and Inoculation Thereof
In the experiment, human serotonin 2C receptor (h-5-HT2C) was expressed in CHO cells (h-5-HT2C/CHO). The cells were incubated with UltraCHO Lipuid (trademark) (manufactured by BioWhitakker) containing 1% FBS, 400 μg/mL Geneticin, 100 U/mL penicillin-100 μg/mL streptomycin (all manufactured by Sigma Aldrich) and 250 μg/mL Zeosin (manufactured by InvivoGen) in an incubator containing 5% CO2. […]
The 5-HT2C receptor agonistic action was evaluated with FLIPR Calcium 4 Assay kit (manufactured by Molecular Devices). […] Then, the cells were set in FLIPR TETRA (trademark) (manufactured by Molecular Devices), to the cells was added the test material diluted with HHBP buffer, 2.5 mmol/L Probenecid (manufactured by Sigma) (concentration after dilution: 10 μmol/L) at an amount of 20 μL/well, and the fluorescence was measured. Then, in order to evaluate the antagonistic action of the test material, 20 μL/well of 5-HT solution (manufactured by Sigma, final concentration: 0.1 nmol/L) was further added to the cells, and the fluorescence was measured.
The 5-HT2C receptor agonistic action of each test material was calculated as a rate of fluorescence enhancement wherein 100% was defined as a value when the cells were given 10 μmol/L 5-HT. […]

Compound: CNCc1cc(OCc2ccccc2)n(CC2CC3CCC2C3)n1 (centres unmarked) [Example 115]
- 5-HT2C receptor agonistic action: −103%

Compound: CCCCn1nc(CNC)cc1OCc1cc(F)ccc1F [Example 242]
- 5-HT2C receptor agonistic action: −95%
